Target: T1, human P2X4 receptors (Homo sapiens, UniProt Q99571)
T1 sequence (Q99571 1-388): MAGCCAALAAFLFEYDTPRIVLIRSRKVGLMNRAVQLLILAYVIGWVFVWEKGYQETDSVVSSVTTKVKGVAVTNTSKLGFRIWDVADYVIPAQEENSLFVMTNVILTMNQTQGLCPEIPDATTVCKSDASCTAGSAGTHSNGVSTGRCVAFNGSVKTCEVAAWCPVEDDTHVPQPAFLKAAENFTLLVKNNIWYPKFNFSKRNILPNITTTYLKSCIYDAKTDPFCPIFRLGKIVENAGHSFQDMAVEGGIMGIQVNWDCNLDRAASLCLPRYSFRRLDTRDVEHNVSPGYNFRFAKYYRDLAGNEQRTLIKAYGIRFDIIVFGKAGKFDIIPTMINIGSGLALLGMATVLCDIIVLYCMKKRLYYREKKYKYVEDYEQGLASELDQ
Experiment: P2X4 receptor antagonism, intracellular calcium influx assay (Fura-2 AM, ATP-induced)
Type: cell-based
Conditions: Table 19; 1321N1 cells stably expressing human P2X4 receptors; compound added 15 min before ATP; fluorescence ratio F340/F380 vs control; read-out: Inhibition activities (IC50 μM)
Procedure: 1321N1 cells stably expressing human P2X4 receptors were adopted for calcium influx assay. P2X4/1321N1 cells were plated in 96-well assay plate and cultured for 24 hours in an atmosphere of 5% CO2 at 37° C. Fura-2 AM calcium indicator dissolved in an extracellular solution for calcium imaging was loaded onto cells for 45 minutes at room temperature. The fluorescence was detected by FLUOstar OPTIMA micro plate reader (BMG labtech). The cells were alternatively illuminated with two excitations wavelengths (340 nm and 380 nm) via xenon lamp and the emitted fluorescence was measured at 510 nm. The fluorescence changes after the treatment of 1 μM ATP were monitored and determined the fluorescence ratio (F340/F380) as the index of intracellular calcium change. Tested compounds were treated to cells 15 min before the addition of ATP and the inhibition activities of compounds were calculated by comparing the Ca^2+ response with control in the absence of tested compound.
P2X4 receptor antagonism of the compound of the present invention was measured as described below. […]
Test compounds were treated to cells for 15 minutes before the addition of ATP, and the response to intracellular calcium influx induced by addition of ATP was monitored by a micro plate reader. The fluorescence ratio of excitations wavelengths of 340 nm and 380 nm was used as the index of intracellular calcium change. […]

Structure (SMILES): O=C1CC(=O)N(c2cccc(-c3nnn[nH]3)c2)c2ccc3c(c2N1)CCCC3.[Na] [Example 2, 5-[3-(1H-Tetrazol-5-yl)phenyl]-8,9,10,11-tetrahydronaphtho[2,1-b][1,4]diazepine-2,4(3H,5H)-dione sodium salt]
- IC50: 0.36 µM
